The results in this text go back to article PMC10261046, “Mechanism of small molecule inhibition of Plasmodium falciparum myosin A informs antimalarial drug design” (Nature Communications, 2023).

For test [1], the target named is PfMyoA (full length Plasmodium falciparum myosin A heavy chain WT with bound light chains PfELC and PfMTIP) (Plasmodium falciparum) (UniProt Q8IDR3). The test is described as follows: count of fluorescent actin filaments on surface-immobilized myosin (in vitro motility assay); PfMyoA on a neutravidin / biotinylated BSA surface, rhodamine-phalloidin actin applied; 25 mM imidazole pH 7.5, 150 mM KCl, 4 mM MgCl2, 1 mM EGTA, 10 mM DTT, 0.15% methylcellulose, 2 mM MgATP, 1% DMSO; without KNX-002.

For test [2] the target is unchanged.
Test [3] shares this target. The test is described as follows: count of fluorescent actin filaments on surface-immobilized myosin (in vitro motility assay); as a1 but in the presence of KNX-002 (200 µM in the results, 100 µM in the methods).
The target is the same in test [4]. The source holds these as a separate data set.

In test [1], “Skeletal muscle actin (chicken), filaments (from UniProt P68139 1-377) (natural protein)” yielded an actin filaments bound per field (filaments/field) of 110. Also, in test [2], the actin-activated ATPase of PfMyoA (5 nM PfMyoA, 50 µM skeletal actin, 30 °C), in the absence of inhibitor is 84.2 s⁻¹ and the actin-activated ATPase of PfMyoA (5 nM PfMyoA, 50 µM skeletal actin, 30 °C), in the presence of 100 µM KNX-002 is 9.6 s⁻¹. Moreover, in test [3], the actin filaments bound per field (with KNX-002) (filaments/field) stood at 6.5. In test [4], this substance gave an in vitro motility assay: speed of actin filaments moved by surface-bound PfMyoA, in the absence of KNX-002 of 3.33 µm/s.
